Measurements published in patent publication US7875638B2, “Synthesis of epothilones, intermediates thereto, analogues and uses thereof” (Sloan-Kettering Institute for Cancer Research, priority 2002, dated 2011).

System: human xenografts in nude mice, such as MX-1
Settings: mouse, in vivo

C/C1=C/CC(/C(C)=C/c2csc(C)n2)OC(=O)C[C@H](O)C(C)(C)C(=O)[C@H](C)[C@@H](O)[C@@H](C)CCC1 (stereo partly shown) [Compound 1, 12,13-desoxyepothilone B, reference compound]
Therapeutic dose regimen for Q2D 6 hr-iv infusion: 25 to 30 mg/kg
